Reference: patent US10258598B2, “Compounds for use in the prevention or treatment of cancer” ([…], priority 2014, dated 2019)

The chains behind the UniProt entries cited, without tags or fusion partners.
UniProt P19643, whole entry: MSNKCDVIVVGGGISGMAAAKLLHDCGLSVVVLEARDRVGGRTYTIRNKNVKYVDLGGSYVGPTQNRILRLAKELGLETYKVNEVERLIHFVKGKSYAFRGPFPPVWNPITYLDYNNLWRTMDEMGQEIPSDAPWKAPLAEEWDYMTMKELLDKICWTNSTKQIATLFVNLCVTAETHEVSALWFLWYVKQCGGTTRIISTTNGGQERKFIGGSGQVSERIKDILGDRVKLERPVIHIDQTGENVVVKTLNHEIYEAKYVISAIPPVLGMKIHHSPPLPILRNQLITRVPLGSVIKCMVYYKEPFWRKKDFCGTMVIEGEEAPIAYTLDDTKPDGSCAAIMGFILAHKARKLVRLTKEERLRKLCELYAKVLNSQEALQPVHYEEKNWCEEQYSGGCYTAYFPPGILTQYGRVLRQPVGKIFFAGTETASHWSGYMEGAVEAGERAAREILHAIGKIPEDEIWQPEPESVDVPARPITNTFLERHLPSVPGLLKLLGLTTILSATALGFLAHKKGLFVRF

Tests used:
Daoy HTB-186 cell line = test: MTT proliferation assay, Daoy medulloblastoma cells; assay type: cell-based, human; conditions: 10^-13 or 10^-8 M combined with temozolomide, Cisplatin, etoposide or Vincristin, 72 hours
Protocol: (§1) Human medulloblastoma cell line, Daoy was purchased from ATCCC, UW-228 was obtained from the courtesy of Professor Silber (University of Washington, Seattle, Wash., USA).
(§2) Daoy and UW-228-2 cell lines were maintained in culture medium (each 500 ml Minimum Essential Medium Eagle, Alpha Modification (M8042, Sigma, St Louis, USA) with 50 ml FCS (Gibco), 40 mg Gentamicin (Sandoz), 5 ml sodium-pyruvate (S8636, Sigma, St Louis, USA), 5 ml non-essential-amino acid solution (M7145, Sigma, St Louis, USA), 10 ml L-glutamin (Sigma, St Louis, USA) at 37° C. in humified 5% CO2.
(§3) In each well 3×10^3 Daoy or UW-228-2 cells were seeded in 96-well plates (Sarstedt), solved in 100 µl of its own medium with 10% FCS. 24 hours after seeding, cells were treated for 72 hours by drugs solved in further 100 μl medium. […]
(§4) Cell proliferation was evaluated by MTT (3-(4,5-Dimethylthiazol-2-yl)-2,5-diphenyltetrazolium bromide) assay (M5655, Sigma) after 72-hour treatment by the method described in manufacturer's protocol.

UW-228-2 cell line = test: MTT proliferation assay, UW-228-2 medulloblastoma cells; assay type: cell-based, human; conditions: 10^-13 or 10^-8 M combined with temozolomide, Cisplatin, etoposide or Vincristin, 72 hours
Protocol: as §1, §2, §3, §4

MAO-B = MAO-B (Rattus norvegicus, UniProt P19643); conditions: dose used in two earlier longevity studies; cited from earlier work

**Q.** What does the source list for `C#CCN(C)[C@H](C)Cc1ccccc1` [(−)-Deprenyl, (R)—N-methyl-N-(1-phenylpropan-2-yl)prop-2-yn-1-amine]?
**A.** effectiveness of tumor-cell proliferation inhibiting agents in combination (Daoy HTB-186 cell line): did not change the effectiveness; effectiveness of tumor-cell proliferation inhibiting agents in combination (UW-228-2 cell line): did not change the effectiveness; dose which completely blocks MAO-B activity in the brain (MAO-B): 0.25 mg/kg
